Patent US20250346604A1, “TRIAZOLOPYRIDAZINE COMPOUNDS USEFUL AS RAC1 INHIBITORS” (Revere Pharmaceuticals, priority 2022, published 2025)
Read-outs that look alike come from different tables or passages of the source.

Legend:
Rac1 = Rac1 (Homo sapiens (Human), UniProt P63000); assay: Rac Activation AlphaScreen Assay (RacI AS)
[1] = Mouse Liver Microsome (MLM) Stability Assay
Method: 5. Mouse Liver Microsome (MLM) Stability Assay
Incubation of test compounds with mouse liver microsomes in the presence of NADPH co-factor was used to assay the in vitro mouse liver microsome metabolic clearance rate. In the presence of the co-factor NADPH, which initiates the reaction, mouse liver microsomes were incubated with test compounds at 37° C. at fixed time intervals. After centrifugation, supernatants were measured by LC/M S. The amount of compound at each time interval was compared to the amount of compound present at the 0 minute timepoint and percentage compound remaining values were calculated. MLM intrinsic clearance (Clint) (μL/min/mg protein) is calculated based on compound half-life.

[2] = read-out: Activity, Table 1, Formula I-A
[3] = Table 3, other compounds of Formula I

IC50 (Rac1; [2]) [nM] | MLM clearance [1] | Structure (SMILES) | other results
< 1000 |  | CCSc1cccc(C(=O)Nc2cccc(-c3ccc4nnc(-c5ccc(C)o5)n4n3)c2)c1 | 
 |  | O=C(Nc1cccc(-c2ccc3nnc(-c4cncs4)n3n2)c1)c1cccc(Cl)c1 | IC50 (Rac1; Table 2, Formula I-B): 1000 to 10000 nM
< 1000 | below 50 μL/min/mg protein | Cc1ccc(-c2nnc3ccc(-c4cccc(NC(=O)c5ccc(F)c(CCC(C)C)c5)c4)nn23)o1 | 
< 1000 |  | Cc1ccc(-c2nnc3ccc(-c4cccc(NC(=O)c5cccc(SC(C)(C)C)c5)c4)nn23)o1 | 
< 1000 |  | Cc1ccc(-c2nnc3ccc(-c4cccc(NC(=O)c5ccc(C)c(-c6cnco6)c5)c4)nn23)o1 | 
< 1000 |  | Cc1ccc(-c2nnc3ccc(-c4cccc(NC(=O)c5ccc(F)c(SC(C)C)c5)c4)nn23)o1 | 
< 1000 | below 50 μL/min/mg protein | Cc1cccc(C(=O)Nc2cccc(-c3ccc4nnc(-c5ccc(C)o5)n4n3)c2)c1 | 
 |  | O=C(Nc1cccc(-c2ccc3nnc(-c4cncs4)n3n2)c1)c1ccc(F)c(Cl)c1 | IC50 (Rac1; Table 2, Formula I-B): 1000 to 10000 nM
< 1000 |  | CSc1cc(C(=O)Nc2cccc(-c3ccc4nnc(-c5ccc(C)o5)n4n3)c2)ccc1F | 
< 1000 | below 50 μL/min/mg protein | Cc1ccc(-c2nnc3ccc(-c4cccc(NC(=O)c5ccc(F)c(Br)c5)c4)nn23)o1 | 
< 1000 | below 50 μL/min/mg protein | Cc1ccc(-c2nnc3ccc(-c4cccc(NC(=O)c5ccc(F)c(C)c5)c4)nn23)o1 | 
< 1000 | below 50 μL/min/mg protein | Cc1ccc(-c2nnc3ccc(-c4cccc(NC(=O)c5cccc(Br)c5)c4)nn23)o1 | 
 |  | O=Cc1ccc(-c2nnc3ccc(-c4cccc(NC(=O)c5ccc(F)cc5)c4)nn23)o1 | IC50 (Rac1; [3]): < 1000 nM
 |  | COc1cc(C(=O)Nc2cccc(-c3ccc4nnc(-c5ccc(CO)o5)n4n3)c2)ccc1F | IC50 (Rac1; [3]): < 1000 nM
